In this assay the target is T1, turkey P2Y1 (Meleagris gallopavo, UniProt P49652).
T1 construct: expressed in transfected cells
The assay is described as follows: Intracellular calcium measurement ([Ca2+]i, fura-2) in 1321N1 astrocytoma cells. In kind it is cell-based. As to the method: Human 1321N1 astrocytoma cells stably expressing the turkey P2Y1, human P2Y2, human P2Y4 or rat P2Y6 were grown in Dulbecco's modified Eagle's medium containing 5% (v/v) fetal bovine serum, 100 units/ml penicillin, 100 μg/ml streptomycin and 500 μg/ml Geneticin (G-418, Life Technologies, Inc). Changes in the intracellular free calcium concentration, [Ca^2+]i were detected by dual-excitation spectrofluorometric analysis of cell suspensions loaded with fura-2, as previously described (Garrad et al., 1998; Grynkiewicz et al., 1985). Cells were assayed in 10 mM Hepes-buffered saline (pH 7.4) containing 1 mM CaCl2 and 1 mM MgCl2. The cells were pelleted in a microfuge and resuspended in 2 ml of buffer. Concentration-response data were analyzed with the Prism curve fitting program (GraphPAD Software, San Diego, Calif.). Three experiments were conducted on separate days for each P2Y receptor subtype.
The activities of compounds 2, 4B, 17, 18, 19A, 21 (isomers A and B) were examined at the G protein-coupled P2YRs, P2Y1, P2Y2, P2Y4 and P2Y6 expressed in human 1321N1 astrocytoma cells, based on intracellular calcium measurements, as described in Experimental above. In particular, the activity of compound 2, 4B and 19 was examined at P2Y1R, P2Y2R, P2Y4R and P2Y6R, and the activity of compounds 17, 18 and 21 was examined at P2Y1R only. The experiments were conducted by Prof. […]

By UniProt entry, the sequences of proteins in these tests, tags left out. Where a name states a change or a piece, a line headed by the entry shows the natural chain unless it says otherwise.
UniProt P49652: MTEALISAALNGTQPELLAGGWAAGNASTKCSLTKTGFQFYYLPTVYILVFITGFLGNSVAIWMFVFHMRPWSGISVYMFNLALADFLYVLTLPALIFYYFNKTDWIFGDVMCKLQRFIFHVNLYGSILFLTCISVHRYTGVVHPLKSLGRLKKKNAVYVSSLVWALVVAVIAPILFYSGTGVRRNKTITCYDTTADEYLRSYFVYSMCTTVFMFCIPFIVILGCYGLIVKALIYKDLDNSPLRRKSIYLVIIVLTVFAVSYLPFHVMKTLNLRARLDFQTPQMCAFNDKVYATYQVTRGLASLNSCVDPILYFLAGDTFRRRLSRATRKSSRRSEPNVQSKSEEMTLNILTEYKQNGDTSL

Each structure is given as a SMILES string. Where two headings read alike, the source gives them in different places.

Consider `CSc1nc(N)c2ncn([C@@H]3O[C@H](COP(=O)(O)OP(=O)(O)O)[C@@H](O)[C@H]3O)c2n1` [Compound 2-MeS-ADP, 2-MeS-ADP, reference compound], for which the EC50 is, setting by setting: (human 1321N1 astrocytoma cells expressing turkey P2Y1, read-out: Compound-induced activation of [Ca2+] EC50, P2Y1) 4 nM; (printed in nM in text, read-out: EC50 at P2Y1R) 4 nM.

Values taken from patent US20100256086A1, “NON-HYDROLYZABLE NUCLEOSIDE DI- OR TRI-PHOSPHATE DERIVATIVES AND USES THEREOF” (priority 2007, published 2010).
